This passage reports Km results from PMC2946453 (Journal of pharmaceutical and biomedical analysis, 2010).

The test system of this data set is CCCCC/C=C\C/C=C\C/C=C\C/C=C\CCCC(=O)O. The experiment in a line: purified protein, by the assay type. The note with it: pH 8.0; 37.0 °C.

A word on the Km: it is the concentration of substrate that gives half-maximal velocity.

With ovine COX-2 (Ovis aries), the Km stood at 1.94 ± 0.39 µM.
